# Cyclic peptide permeability, from CycPeptMPDB

Collected by the curators of CycPeptMPDB (Li et al. 2023) from Kelly et al. 2021, doi:10.1021/jacs.0c06115.

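Conditions beyond the assay type are not listed; see the original paper. Other peptides of the study may be missing here. Peptides that the database sets to -10, its floor, are left out.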

PAMPA measures passive passage through an artificial lipid membrane. MDCK: transport across canine kidney epithelial cells. Values are log10 P with P in cm/s, so -5 is more permeable than -7. "–" marks a cell with nothing listed here.

| PAMPA (log10 cm/s) | MDCK (log10 cm/s) | SMILES |
|---|---|---|
| -5.82 | – | CC(=O)N1CCC[C@@H]1C(=O)N(C)[C@@H](CC(C)C)C(=O)N[C@@H]1C(=O)N[C@H](CC(C)C)C(=O)N[C@H](CC(C)C)C(=O)N(C)[C@H](CC(C)C)C(=O)N(C)[C@H](C)C(=O)N[C@H](CC(C)C)C(=O)N2CCC[C@@H]2C(=O)O[C@@H]1C |
| -5.54 | – | CC(=O)N1CCC[C@H]1C(=O)N(C)[C@H](CC(C)C)C(=O)N[C@@H]1C(=O)N(C)[C@H](CC(C)C)C(=O)N[C@H](CC(C)C)C(=O)N(C)[C@@H](CC(C)C)C(=O)N(C)[C@H](C)C(=O)N[C@H](CC(C)C)C(=O)N2CCC[C@H]2C(=O)O[C@@H]1C |
| -6.51 | – | CC(=O)N1CCC[C@@H]1C(=O)N(C)[C@H](CC(C)C)C(=O)N[C@@H]1C(=O)N[C@@H](CC(C)C)C(=O)N(C)[C@@H](CC(C)C)C(=O)N(C)[C@H](CC(C)C)C(=O)N(C)[C@@H](C)C(=O)N[C@H](CC(C)C)C(=O)N2CCC[C@H]2C(=O)O[C@@H]1C |
| -4.99 | – | CC(=O)N1CCC[C@H]1C(=O)N[C@@H]1C(=O)N[C@H](CC(C)C)C(=O)N(C)[C@H](CC(C)C)C(=O)N(C)[C@@H](CC(C)C)C(=O)N(C)[C@H](CC(C)C)C(=O)N(C)[C@@H](C)C(=O)N[C@@H](CC(C)C)C(=O)N2CCC[C@@H]2C(=O)O[C@@H]1C |
| -5.89 | – | CC(=O)N1CCC[C@H]1C(=O)N(C)[C@@H](CC(C)C)C(=O)N[C@@H]1C(=O)N(C)[C@@H](CC(C)C)C(=O)N[C@H](CC(C)C)C(=O)N(C)[C@H](CC(C)C)C(=O)N(C)[C@@H](C)C(=O)N[C@@H](CC(C)C)C(=O)N2CCC[C@@H]2C(=O)O[C@@H]1C |
| -5.95 | – | CC(=O)N1CCC[C@@H]1C(=O)N(C)[C@@H](CC(C)C)C(=O)N[C@@H]1C(=O)N(C)[C@@H](CC(C)C)C(=O)N(C)[C@H](CC(C)C)C(=O)N(C)[C@H](CC(C)C)C(=O)N(C)[C@H](C)C(=O)N[C@@H](CC(C)C)C(=O)N2CCC[C@H]2C(=O)O[C@@H]1C |
| -5.08 | – | CC(=O)N1CCC[C@H]1C(=O)N[C@@H]1C(=O)N(C)[C@H](CC(C)C)C(=O)N(C)[C@H](CC(C)C)C(=O)N(C)[C@H](CC(C)C)C(=O)N(C)[C@@H](CC(C)C)C(=O)N(C)[C@@H](C)C(=O)N[C@@H](CC(C)C)C(=O)N2CCC[C@@H]2C(=O)O[C@@H]1C |
| -5.23 | – | CC(=O)N1CCC[C@@H]1C(=O)N(C)[C@@H](CC(C)C)C(=O)N[C@@H]1C(=O)N(C)[C@H](CC(C)C)C(=O)N(C)[C@H](CC(C)C)C(=O)N(C)[C@@H](CC(C)C)C(=O)N(C)[C@@H](C)C(=O)N[C@H](CC(C)C)C(=O)N2CCC[C@H]2C(=O)O[C@@H]1C |
| -5.96 | – | CC(=O)N1CCC[C@H]1C(=O)N(C)[C@@H](CC(C)C)C(=O)N[C@@H]1C(=O)N(C)[C@H](CC(C)C)C(=O)N[C@@H](CC(C)C)C(=O)N(C)[C@@H](CC(C)C)C(=O)N(C)[C@H](C)C(=O)N[C@H](CC(C)C)C(=O)N2CCC[C@H]2C(=O)O[C@@H]1C |
| -5.13 | – | CC(=O)N1CCC[C@@H]1C(=O)N(C)[C@@H](CC(C)C)C(=O)N[C@@H]1C(=O)N(C)[C@H](CC(C)C)C(=O)N(C)[C@H](CC(C)C)C(=O)N[C@@H](CC(C)C)C(=O)N(C)[C@@H](C)C(=O)N[C@H](CC(C)C)C(=O)N2CCC[C@@H]2C(=O)O[C@@H]1C |
| -7.21 | -6.30 | CC(=O)N1CCC[C@@H]1C(=O)N(C)[C@@H](CC(C)C)C(=O)N[C@@H]1C(=O)N[C@H](CC(C)C)C(=O)N[C@H](CC(C)C)C(=O)N[C@@H](CC(C)C)C(=O)N[C@@H](C)C(=O)N[C@@H](CC(C)C)C(=O)N2CCC[C@@H]2C(=O)O[C@@H]1C |
| -5.95 | – | CC(=O)N1CCC[C@@H]1C(=O)N(C)[C@@H](CC(C)C)C(=O)N[C@@H]1C(=O)N[C@@H](CC(C)C)C(=O)N[C@H](CC(C)C)C(=O)N(C)[C@@H](CC(C)C)C(=O)N(C)[C@@H](C)C(=O)N[C@@H](CC(C)C)C(=O)N2CCC[C@H]2C(=O)O[C@@H]1C |
| -6.35 | – | CC(=O)N1CCC[C@H]1C(=O)N(C)[C@@H](CC(C)C)C(=O)N[C@@H]1C(=O)N(C)[C@H](CC(C)C)C(=O)N[C@H](CC(C)C)C(=O)N[C@@H](CC(C)C)C(=O)N[C@@H](C)C(=O)N[C@H](CC(C)C)C(=O)N2CCC[C@H]2C(=O)O[C@@H]1C |
| -6.09 | – | CC(=O)N1CCC[C@H]1C(=O)N(C)[C@@H](CC(C)C)C(=O)N[C@@H]1C(=O)N[C@H](CC(C)C)C(=O)N[C@H](CC(C)C)C(=O)N(C)[C@@H](CC(C)C)C(=O)N[C@@H](C)C(=O)N[C@@H](CC(C)C)C(=O)N2CCC[C@H]2C(=O)O[C@@H]1C |
| -5.00 | – | CC(=O)N1CCC[C@H]1C(=O)N[C@@H]1C(=O)N[C@H](CC(C)C)C(=O)N(C)[C@H](CC(C)C)C(=O)N(C)[C@@H](CC(C)C)C(=O)N[C@H](CC(C)C)C(=O)N(C)[C@H](C)C(=O)N[C@@H](CC(C)C)C(=O)N2CCC[C@@H]2C(=O)O[C@@H]1C |
| -6.01 | – | CC(=O)N1CCC[C@@H]1C(=O)N(C)[C@H](CC(C)C)C(=O)N[C@@H]1C(=O)N(C)[C@@H](CC(C)C)C(=O)N[C@H](CC(C)C)C(=O)N(C)[C@@H](CC(C)C)C(=O)N(C)[C@@H](C)C(=O)N[C@@H](CC(C)C)C(=O)N2CCC[C@H]2C(=O)O[C@@H]1C |
| -6.91 | – | CC(=O)N1CCC[C@@H]1C(=O)N(C)[C@H](CC(C)C)C(=O)N[C@@H]1C(=O)N(C)[C@@H](CC(C)C)C(=O)N[C@@H](CC(C)C)C(=O)N(C)[C@@H](CC(C)C)C(=O)N(C)[C@@H](C)C(=O)N[C@H](CC(C)C)C(=O)N2CCC[C@H]2C(=O)O[C@@H]1C |
| -6.43 | – | CC(=O)N1CCC[C@H]1C(=O)N(C)[C@@H](CC(C)C)C(=O)N[C@@H]1C(=O)N[C@H](CC(C)C)C(=O)N[C@@H](CC(C)C)C(=O)N[C@@H](CC(C)C)C(=O)N(C)[C@@H](C)C(=O)N[C@@H](CC(C)C)C(=O)N2CCC[C@@H]2C(=O)O[C@@H]1C |
| -6.15 | – | CC(=O)N1CCC[C@H]1C(=O)N[C@@H]1C(=O)N[C@H](CC(C)C)C(=O)N[C@@H](CC(C)C)C(=O)N[C@@H](CC(C)C)C(=O)N[C@H](CC(C)C)C(=O)N[C@H](C)C(=O)N[C@@H](CC(C)C)C(=O)N2CCC[C@@H]2C(=O)O[C@@H]1C |
| -5.22 | – | CC(=O)N1CCC[C@H]1C(=O)N(C)[C@@H](CC(C)C)C(=O)N[C@@H]1C(=O)N(C)[C@H](CC(C)C)C(=O)N(C)[C@@H](CC(C)C)C(=O)N(C)[C@H](CC(C)C)C(=O)N(C)[C@@H](C)C(=O)N[C@H](CC(C)C)C(=O)N2CCC[C@H]2C(=O)O[C@@H]1C |
| -5.54 | – | CC(=O)N1CCC[C@H]1C(=O)N(C)[C@@H](CC(C)C)C(=O)N[C@@H]1C(=O)N(C)[C@@H](CC(C)C)C(=O)N(C)[C@H](CC(C)C)C(=O)N(C)[C@@H](CC(C)C)C(=O)N(C)[C@H](C)C(=O)N[C@@H](CC(C)C)C(=O)N2CCC[C@H]2C(=O)O[C@@H]1C |

Excerpt, the opening 2 entries:

| SMILES | PAMPA (log10 cm/s) | MDCK (log10 cm/s) |
|---|---|---|
| CC(=O)N1CCC[C@@H]1C(=O)N(C)[C@@H](CC(C)C)C(=O)N[C@@H]1C(=O)N[C@H](CC(C)C)C(=O)N[C@H](CC(C)C)C(=O)N(C)[C@H](CC(C)C)C(=O)N(C)[C@H](C)C(=O)N[C@H](CC(C)C)C(=O)N2CCC[C@@H]2C(=O)O[C@@H]1C | -5.82 | – |
| CC(=O)N1CCC[C@H]1C(=O)N(C)[C@H](CC(C)C)C(=O)N[C@@H]1C(=O)N(C)[C@H](CC(C)C)C(=O)N[C@H](CC(C)C)C(=O)N(C)[C@@H](CC(C)C)C(=O)N(C)[C@H](C)C(=O)N[C@H](CC(C)C)C(=O)N2CCC[C@H]2C(=O)O[C@@H]1C | -5.54 | – |